Here are results for one substance from PMC6321321 (Pharmaceutics, 2018).

Read-outs that look alike come from different tables or passages of the source.

Data set [1] can be described thus: In situ closed ileum loop study: insulin after pretreatment of the loop with enhancers. The conditions noted are these: rat ileal loop pretreated 30 min with PBS, washed, then insulin 50 IU/kg, mean ± SEM, N=4. How it is done:
(§1) Additional i.p. injections of sodium pentobarbital (12.5 mg/kg) were administered every 1 h to maintain anesthesia. The ileum was exposed following a small midline incision made carefully in the abdomen. Its proximal to ileocecal junction segments (length = 10 cm) were cannulated at both ends using polypropylene tubing and ligated securely to prevent fluid loss. To wash out the intestinal contents, PBS warmed to 37 °C was circulated through the cannula at 5.0 mL/min for 4 min using an infusion pump. The cannulation tubing was removed, the segments were closed tightly and returned carefully to their original location inside the peritoneal cavity. Rats were kept on the board at 37 °C for an additional 30 min to calm biological reactions such as elevated blood glucose levels resulting from the stress imposed by surgery. […] To examine dose dependency, the final concentrations of tryptophan were adjusted to 4, 8, 16 and 32 mM. In the comparison study with three hydrophobic amino acids or metabolite of L-tryptophan, the final concentrations of L-isoleucine, L-proline, L-phenylalanine and serotonin were 32 mM. In the study examining the synergistic effect of L-arginine and L-tryptophan, the final concentration of L-arginine was fixed at 40 mM.
(§2) During the experiment, 0.25 mL blood aliquots were taken from the jugular vein at 0, 5, 10, 15, 30, 60, 120 and 180 min after dosing. The tuberculin syringes (1 mL, Terumo Corp., Tokyo, Japan) were heparinized by the standard procedure of coating the syringe wall with aspirated heparin and then expelling all the heparin. […] The plasma concentrations of FDs were measured with a microplate fluorimeter (Synergy HT, BioTek Instruments Inc., Winooski, VT, USA) at excitation and emission wavelengths of 485 and 528 nm, respectively.

The nature of data set [2]: In situ closed ileum loop administration study: insulin co-administered with additives. The conditions noted are these: in situ rat closed ileal loop, insulin 50 IU/kg alone, mean ± SEM, N=8. The procedure: as §1, §2
For data set [3] the following is noted: rat.
The mark [4] stands for this setting: relative to s.c. insulin 1 IU/kg.

In the case of Insulin, the “AUC (plasma insulin)” value is recorded as 2.0 ± 0.2 μU·h/mL in data set [1] (AUC 0-3 h); 8.5 ± 2.5 μU·h/mL in data set [2] (AUC 0-3 h, trapezoids); 191.2 ± 5.2 μU·h/mL in data set [3] (insulin s.c. 1 IU/kg in PBS, AUC 0-3 h, mean ± SEM, N=3). For the same substance, the “Cmax (plasma insulin)” value amounted to 1.7 ± 0.3 μU/mL in data set [1] (ELISA); 10.6 ± 2.4 μU/mL in data set [2] (plasma insulin by ELISA); 133.8 ± 3.4 μU/mL in data set [3] (insulin s.c. 1 IU/kg in PBS, ELISA, mean ± SEM, N=3). For the same substance, the “Tmax (plasma insulin)” value amounted to 7.5 ± 2.5 min in data set [1]; 9.4 ± 1.1 min in data set [2]; 25.0 ± 5.0 min in data set [3] (insulin s.c. 1 IU/kg in PBS, mean ± SEM, N=3). Moreover, the “BA (relative bioavailability of insulin)” value is on record as 0.0 ± 0.0% in data set [1] (setting [4]); 0.1 ± 0.0% in data set [2] (setting [4]); 100% in data set [3] (insulin s.c. 1 IU/kg, reference route of the BA calculation).
